Experimental data from ChEMBL document CHEMBL3351225, “Design, synthesis, and structure-activity and structure-pharmacokinetic relationship studies of novel [6,6,5] tricyclic fused oxazolidinones leading to the discovery of a potent, selective, and orally bioavailable FXa inhibitor” (J Med Chem, 2014).

What was measured:
Homo sapiens [1] = species: Homo sapiens; assay: Selectivity index, ratio of IC50 for human trypsin to IC50 for human factor 10a
Homo sapiens [2] = species: Homo sapiens; assay: Selectivity index, ratio of IC50 for human factor 9a to IC50 for human factor 10a
Homo sapiens [3] = species: Homo sapiens; assay: Selectivity index, ratio of IC50 for human factor 11a to IC50 for human factor 10a
Homo sapiens [4] = species: Homo sapiens; assay: Selectivity index, ratio of IC50 for human factor 7a to IC50 for human factor 10a
Homo sapiens [5] = species: Homo sapiens; assay: Selectivity index, ratio of IC50 for human factor 2a to IC50 for human factor 10a

Measured: Ratio IC50

O=C(NC[C@@H]1OC(=O)N2c3ccc(N4CCOCC4=O)cc3CC[C@@H]12)c1ccc(Cl)s1
> 20000: all assays above
